Chains of the proteins cited; added tags and fusions are not shown.
UniProt P68400, whole entry: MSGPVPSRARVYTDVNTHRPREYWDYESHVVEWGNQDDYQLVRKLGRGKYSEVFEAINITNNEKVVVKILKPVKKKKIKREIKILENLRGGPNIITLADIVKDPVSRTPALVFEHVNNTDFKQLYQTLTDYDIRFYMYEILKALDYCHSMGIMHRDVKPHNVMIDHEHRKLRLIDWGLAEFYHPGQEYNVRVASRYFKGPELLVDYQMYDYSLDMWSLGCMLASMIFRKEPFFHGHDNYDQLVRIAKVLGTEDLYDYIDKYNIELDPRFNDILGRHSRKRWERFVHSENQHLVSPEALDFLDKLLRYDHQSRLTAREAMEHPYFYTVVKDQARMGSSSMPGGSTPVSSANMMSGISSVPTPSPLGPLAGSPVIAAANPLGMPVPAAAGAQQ

According to patent publication US9062043B2, “Fused tricyclic compounds as serine-threonine protein kinase and PARP modulators” (SENHWA BIOSCIENCES, INC., priority 2006, dated 2015):

target: recombinant human CK2 (Homo sapiens (Human), UniProt P68400); experiment: CK2 assay (cell-free, radiometric, substrate peptide […]); assay type: biochemical; details: Table 11; read-out: CK2 IC50

| IC50 [µM] | SMILES |
| --- | --- |
| > 10 | O=C(NCCCO)c1ccc2c(c1)nc(NCCCO)c1ccsc12 [drawing 430] |
| > 5 | Clc1nc2ccccc2c2sccc12 [drawing 443] |

| SMILES | IC50 [µM] |
| --- | --- |
| COC(=O)c1ccc2c(c1)nc(Cl)c1ccsc12 [drawing 429] | > 10 |

same assay, conditions: read-out: CK2: IC50 (uM) (15 uM ATP); 15 uM ATP; Table 13

| IC50 [µM] | SMILES |
| --- | --- |
| > 0.75 | COC(=O)c1ccc2c(c1)nc(NC1CC1)c1nc(SC)ncc12 [drawing 662] |
| > 0.75 | CN(C)CCNc1nc2cc(C(=O)O)ccc2c2cnc(NC3CC3)nc12 [drawing 663] |

More lines, now with the values behind:

| SMILES | IC50 [µM] |
| --- | --- |
| CN(C)c1ncc2c(n1)c(NC1CC1)nc1cc(C(=O)O)ccc12 | > 0.75 |
| O=C(O)c1ccc2c(c1)nc(NC1CC1)c1nc(SCc3ccccc3Cl)ncc12 [drawing 635] | > 0.75 |
| O=C(O)c1ccc2c(c1)nc(Nc1cncc(C3CC3)c1)c1ccncc12 [drawing 640] | > 0.75 |
| O=C(O)c1ccc2c(c1)nc(N1CCOCC1)c1nc(NC3CC3)ncc12 [drawing 648] | > 0.75 |
